US5599839A, “Antiviral composition” (The United States of America as represented by the …, priority 1995, dated 1997)

Tests used:
[1] = test system: CEM-SS cells; conditions: 0-5 days of incubation, FIG. 4
Description: Trypan blue dye exclusion was employed for secondary evaluation of drug toxicity and antiviral protection over time. A 50 μl aliquot of cells was removed from each test well and mixed with 100 μl of 0.4% trypan blue. The percentage of viable cells was determined microscopically by direct hemocytometer counts.

[2] = test system: protein kinase C; conditions: in vitro
Description: Incubation was for 30 min at 37° C., after which the cells were chilled, an aliquot removed to determine total counts, and bound counts determined by filtration.

[3] = test system: C3H10T1/2 cells; experiment: Release of [3H]arachidonic acid metabolites in C3H10T1/2 cells; type: cell-based
Source text: Well-characterized biological responses to the phorbol esters include inhibition of binding of epidermal growth factor and release of arachidonic acid metabolites [Dell'Aquila et al.: Cancer Res. 48:3702-3708, (1988)].

[4] = test system: CEM-SS cells
[5] = test system: CEM-SS cells; type: cell-based, human; conditions: 500 nM
Source text: Cancer Inst. […] Cancer Inst. 81:1254-1258, (1989)] but with several modifications.
Philadelphia: Lippincott, 1988, pp. 305-317; Weislow et al.: J. Nat. Cancer Inst. […] Cancer Inst. 81:1254-1258, (1989)].

Compound | Anti-HIV activity over time, trypan blue end-point [1] | Stimulation of protein kinase C activity [2] | Release of arachidonic acid metabolites [3] | Cell proliferation [4] | Cytopathic effects of HIV-1 infection [4] | Syncytium formation (cellular morphology at higher magnification) ([4]; 1 μM) | Macroscopic morphology of cell pellets, uninfected versus HIV-1-infected ([4]; 10 μg/ml, 6 days) | Pellet size and percentage of viable cells, infected versus uninfected cultures ([4]; after prostratin treatment) | Cytostatic effect [5]
CC(=O)O[C@@]12C[C@@H](C)[C@@]3(O)[C@@H](C=C(CO)C[C@]4(O)C(=O)C(C)=C[C@@H]34)[C@@H]1C2(C)C [prostratin] | strikingly apparent after three or more days | stimulated protein kinase C (PKC) activity | induces both of these responses | inhibited cell proliferation | block totally | syncytium formation was completely abolished | virtually identical | similar | –
CCCC(=O)O[C@@H]1[C@@H](C)[C@@]2(O)[C@@H](C=C(CO)C[C@]3(O)C(=O)C(C)=C[C@@H]23)[C@@H]2C(C)(C)[C@]12OC(=O)CCC [PDBu, phorbol 12,13-dibutyrate, reference compound] | – | stimulated protein kinase C (PKC) activity | – | – | – | – | – | – | cytostatic
